{"source": "patent US5994629A", "about": "“Positive selection” (priority 1991, dated 1999)", "key": {"[1]": {"tested_on": "tobacco leaf discs", "test": "Inhibition by SL of shoot formation induced by BA and BA3GN sodium salt", "assay_type": "cell-based", "conditions": "BA 0.5 mg/l, BA3GN sodium salt 15 mg/l"}, "[2]": {"tested_on": "tobacco leaf discs co-cultivated with Agrobacterium", "test": "Positive selection combined with negative selection", "assay_type": "cell-based", "conditions": "kanamycin 300 mg/l; BA 1 mg/l or BA3GN sodium salt 15 mg/l", "excerpt": "In addition, the experiment included selection using BA3GN sodium salt together with saccharo 1,4-lactone (SL) (a strong specific inhibitor of the introduced β-glucuronidase).\nThe methods used were essentially as described below in Example 13, but Gamborg B5 substrate was used instead of MSO substrate.\nThe experiment with BA together with kanamycin, which is the traditional negative selection system, was repeated as two independent experiments with 54 leaf discs per experiment. A single GUS-positive shoot was detected among a total of 23 selected shoots. The results for BA3GN sodium salt were obtained using 324 leaf discs. The experiment with SL (saccharo 1,4-lactone) was performed once with a total of 162 leaf discs."}, "[3]": {"tested_on": "wild type (GUS-) tobacco leaf discs", "test": "Selective inhibition of BA3GN induced shoot formation", "assay_type": "cell-based, tobacco variety 'Burley'", "conditions": "for Shoots per leaf disc, BA substrate: BA 1 mg/l; for Shoots per leaf disc, BA3GN substrate: BA3GN 15 mg/l"}, "[4]": {"tested_on": "native GUS activity in non-transformed tobacco leaf discs", "test": "Test of inhibitors in X-gluc assay at pH 5.0", "assay_type": "cell-based", "conditions": "for X-gluc reaction with inhibitor: pH 5.0, 20 hours; for inhibition of native GUS activity, in words: pH 5.0, X-gluc assay"}, "[5]": {"tested_on": "tobacco leaf discs"}, "[6]": {"tested_on": "tobacco leaf discs", "test": "Effect of opines on shoot formation in substrates without nitrogen", "assay_type": "cell-based", "conditions": "for number of shoots per 9 leaf discs: substrate without nitrogen, 1 mg/l BA; for function as nitrogen source, in words: substrate without other nitrogen"}}}
{"smiles": "c1ccc(CNc2ncnc3nc[nH]c23)cc1", "note": "[BA, N^6 -benzyladenine]", "values": [{"measurement": "Number of regenerated shoots per leaf disc", "setting": "[1]; SL 0 mM", "value": 4.3}, {"measurement": "relative number of regenerated shoots per leaf disc", "setting": "[1]; SL 0 mM", "value": 100, "unit": "%"}, {"measurement": "Number of regenerated shoots per leaf disc", "setting": "[1]; SL 16 mM", "value": 3.6}, {"measurement": "relative number of regenerated shoots per leaf disc", "setting": "[1]; SL 16 mM", "value": 84, "unit": "%"}, {"measurement": "GUS+ shoots among total shoots, %", "setting": "[2]", "value": 4.3, "unit": "%"}, {"measurement": "GUS+ shoots among total shoots, compared to BA + Kanamycin", "setting": "[2]", "value": 1, "unit": "x"}, {"measurement": "GUS+ shoots per leaf disc, No.", "setting": "[2]", "value": 0.01}, {"measurement": "GUS+ shoots per leaf disc, compared to BA + Kanamycin", "setting": "[2]", "value": 1, "unit": "x"}, {"measurement": "Shoots per leaf disc", "setting": "[3]; BA 1 mg/l or BA3GN 15 mg/l alone (additive 0 mg/l)", "value": 1.00}]}
{"smiles": "O=C(O)CN(CCN(CC(=O)O)CC(=O)O)CC(=O)O", "note": "[EDTA]", "values": [{"measurement": "X-gluc reaction with inhibitor", "setting": "[4]; 0.1 mM", "value": "+"}, {"measurement": "X-gluc reaction with inhibitor", "setting": "[4]; 1 mM", "value": "+"}, {"measurement": "X-gluc reaction with inhibitor", "setting": "[4]; 10 mM", "value": "+"}, {"measurement": "X-gluc reaction with inhibitor", "setting": "[4]; 50 mM", "value": "+"}, {"measurement": "inhibition of native GUS activity, in words", "setting": "[4]", "value": "no effect"}]}
{"smiles": "OC[C@H]1OC(O)[C@H](O)[C@@H](O)[C@H]1O", "note": "(some centres unmarked) [Galactose]", "values": [{"measurement": "X-gluc reaction with inhibitor", "setting": "[4]; 0.1 mM", "value": "+"}, {"measurement": "X-gluc reaction with inhibitor", "setting": "[4]; 1 mM", "value": "+"}, {"measurement": "X-gluc reaction with inhibitor", "setting": "[4]; 10 mM", "value": "+"}, {"measurement": "X-gluc reaction with inhibitor", "setting": "[4]; 50 mM", "value": "+"}]}
{"smiles": "O=C1O[C@H](CO)[C@@H](O)[C@H](O)[C@H]1O", "note": "[Gluconolactone]", "values": [{"measurement": "X-gluc reaction with inhibitor", "setting": "[4]; 0.1 mM", "value": "+"}, {"measurement": "X-gluc reaction with inhibitor", "setting": "[4]; 1 mM", "value": "+"}, {"measurement": "X-gluc reaction with inhibitor", "setting": "[4]; 10 mM", "value": "+"}, {"measurement": "X-gluc reaction with inhibitor", "setting": "[4]; 50 mM", "value": "+"}, {"measurement": "inhibition of native GUS activity, in words", "setting": "[4]", "value": "no inhibiting effect"}]}
{"smiles": "O=C(O)[C@H]1OC(O)[C@H](O)[C@@H](O)[C@@H]1O", "note": "(some centres unmarked) [Glucuronic acid]", "values": [{"measurement": "X-gluc reaction with inhibitor", "setting": "[4]; 0.1 mM", "value": "+"}, {"measurement": "X-gluc reaction with inhibitor", "setting": "[4]; 1 mM", "value": "+"}, {"measurement": "X-gluc reaction with inhibitor", "setting": "[4]; 10 mM", "value": 0}, {"measurement": "X-gluc reaction with inhibitor", "setting": "[4]; 50 mM", "value": 0}, {"measurement": "inhibition of native GUS activity, in words", "setting": "[4]", "value": "medium strength inhibitor"}, {"measurement": "Ratio BA/BA3GN", "setting": "[3]; additive 1000 mg/l", "value": 4.1}, {"measurement": "Shoots per leaf disc, BA substrate", "setting": "[3]; additive 1000 mg/l", "value": 0.33}, {"measurement": "Shoots per leaf disc, BA3GN substrate", "setting": "[3]; additive 1000 mg/l", "value": 0.08}, {"measurement": "Shoots per leaf disc, BA substrate", "setting": "[3]; additive 3300 mg/l", "value": 0.83}, {"measurement": "Shoots per leaf disc, BA3GN substrate", "setting": "[3]; additive 3300 mg/l", "value": 0}, {"measurement": "Shoots per leaf disc, BA substrate", "setting": "[3]; additive 10,000 mg/l", "value": 0.42}, {"measurement": "Shoots per leaf disc, BA3GN substrate", "setting": "[3]; additive 10,000 mg/l", "value": 0}]}
{"smiles": "O=C(O)Cc1c[nH]c2ccccc12", "note": "[IAA, indole acetic acid]", "values": [{"measurement": "factor by which the effect on callus growth is increased", "setting": "[5]; metabolism of the compound inhibited", "value": "5-100"}]}
{"smiles": "NC(=O)CC[C@H](NC[C@@H](O)[C@@H](O)[C@H](O)[C@H](O)CO)C(=O)O", "note": "[Mannopine]", "values": [{"measurement": "number of shoots per 9 leaf discs", "setting": "[6]; 10 mM", "value": "> 50"}, {"measurement": "number of shoots per 9 leaf discs", "setting": "[6]; 20 mM", "value": "> 50"}, {"measurement": "number of shoots per 9 leaf discs", "setting": "[6]; 40 mM", "value": "> 50"}, {"measurement": "number of shoots per 9 leaf discs", "setting": "[6]; 80 mM", "value": "> 50"}, {"measurement": "function as nitrogen source, in words", "setting": "[6]", "value": "can function as a good nitrogen source"}]}
{"smiles": "CO[C@@H]1O[C@H](C(=O)O)[C@@H](O)[C@H](O)[C@H]1O", "note": "[Methyl-β-glucuronide, Methyl-β-D-glucuronide]", "values": [{"measurement": "Ratio BA/BA3GN", "setting": "[3]; additive 1000 mg/l", "value": 1.9}, {"measurement": "Shoots per leaf disc, BA substrate", "setting": "[3]; additive 1000 mg/l", "value": 1.91}, {"measurement": "Shoots per leaf disc, BA3GN substrate", "setting": "[3]; additive 1000 mg/l", "value": 1.00}, {"measurement": "Shoots per leaf disc, BA substrate", "setting": "[3]; additive 3300 mg/l", "value": 2.25}, {"measurement": "Shoots per leaf disc, BA3GN substrate", "setting": "[3]; additive 3300 mg/l", "value": 0}]}
{"smiles": "Cc1cc(=O)oc2cc(O[C@@H]3O[C@H](C(=O)O)[C@@H](O)[C@H](O)[C@H]3O)ccc12", "note": "[Methylumbellipheryl glucuronide]", "values": [{"measurement": "X-gluc reaction with inhibitor", "setting": "[4]; 0.1 mM", "value": "+"}, {"measurement": "X-gluc reaction with inhibitor", "setting": "[4]; 1 mM", "value": "+"}, {"measurement": "X-gluc reaction with inhibitor", "setting": "[4]; 10 mM", "value": "+"}, {"measurement": "X-gluc reaction with inhibitor", "setting": "[4]; 50 mM", "value": 0}, {"measurement": "inhibition of native GUS activity, in words", "setting": "[4]", "value": "weak inhibitor"}]}
{"smiles": "N=C(N)NCCCC(NC(CCC(=O)O)C(=O)O)C(=O)O", "note": "(centres unmarked) [Nopaline]", "values": [{"measurement": "number of shoots per 9 leaf discs", "setting": "[6]; 10 mM", "value": 18}, {"measurement": "number of shoots per 9 leaf discs", "setting": "[6]; 20 mM", "value": 19}, {"measurement": "number of shoots per 9 leaf discs", "setting": "[6]; 40 mM", "value": 11}, {"measurement": "number of shoots per 9 leaf discs", "setting": "[6]; 80 mM", "value": 8}, {"measurement": "function as nitrogen source, in words", "setting": "[6]", "value": "cannot support shoot formation"}]}
{"smiles": "CC(NC(CCCNC(=N)N)C(=O)O)C(=O)O", "note": "(centres unmarked) [Octopine]", "values": [{"measurement": "number of shoots per 9 leaf discs", "setting": "[6]; 10 mM", "value": 11}, {"measurement": "number of shoots per 9 leaf discs", "setting": "[6]; 20 mM", "value": 15}, {"measurement": "number of shoots per 9 leaf discs", "setting": "[6]; 40 mM", "value": 15}, {"measurement": "number of shoots per 9 leaf discs", "setting": "[6]; 80 mM", "value": 7}, {"measurement": "function as nitrogen source, in words", "setting": "[6]", "value": "cannot support shoot formation"}]}
{"smiles": "O=C(O)[C@@H](O)[C@H]1OC(=O)[C@H](O)[C@H]1O", "note": "[Saccharo 1,4-lactone]", "values": [{"measurement": "X-gluc reaction with inhibitor", "setting": "[4]; 0.1 mM", "value": "+"}, {"measurement": "X-gluc reaction with inhibitor", "setting": "[4]; 1 mM", "value": 0}, {"measurement": "X-gluc reaction with inhibitor", "setting": "[4]; 10 mM", "value": 0}, {"measurement": "X-gluc reaction with inhibitor", "setting": "[4]; 50 mM", "value": 0}, {"measurement": "inhibition of native GUS activity, in words", "setting": "[4]", "value": "strong inhibitor"}]}
{"smiles": "O=C(O)[C@H]1O[C@H](OP(=O)(O)OP(=O)(O)OC[C@H]2O[C@@H](n3ccc(=O)[nH]c3=O)[C@H](O)[C@@H]2O)[C@H](O)[C@@H](O)[C@@H]1O", "note": "[UDP-glucuronide]", "values": [{"measurement": "X-gluc reaction with inhibitor", "setting": "[4]; 0.1 mM", "value": "+"}, {"measurement": "X-gluc reaction with inhibitor", "setting": "[4]; 1 mM", "value": "+"}, {"measurement": "X-gluc reaction with inhibitor", "setting": "[4]; 10 mM", "value": "+"}, {"measurement": "X-gluc reaction with inhibitor", "setting": "[4]; 50 mM", "value": "+"}]}
{"smiles": "C/C(=C\\CNc1ncnc2[nH]cnc12)CO", "note": "[Zeatin]", "values": [{"measurement": "factor by which the optimal shoot inducing concentration is lowered", "setting": "[5]; glycosylation of zeatin inhibited", "value": "5-100"}]}
